The results in this text go back to patent publication US9499517B2, “Substituted prolines / piperidines as orexin receptor antagonists” (Eolas Therapeutics, Inc., priority 2012, dated 2016).

The chains behind the UniProt entries cited, without tags or fusion partners.
UniProt O43614, whole entry: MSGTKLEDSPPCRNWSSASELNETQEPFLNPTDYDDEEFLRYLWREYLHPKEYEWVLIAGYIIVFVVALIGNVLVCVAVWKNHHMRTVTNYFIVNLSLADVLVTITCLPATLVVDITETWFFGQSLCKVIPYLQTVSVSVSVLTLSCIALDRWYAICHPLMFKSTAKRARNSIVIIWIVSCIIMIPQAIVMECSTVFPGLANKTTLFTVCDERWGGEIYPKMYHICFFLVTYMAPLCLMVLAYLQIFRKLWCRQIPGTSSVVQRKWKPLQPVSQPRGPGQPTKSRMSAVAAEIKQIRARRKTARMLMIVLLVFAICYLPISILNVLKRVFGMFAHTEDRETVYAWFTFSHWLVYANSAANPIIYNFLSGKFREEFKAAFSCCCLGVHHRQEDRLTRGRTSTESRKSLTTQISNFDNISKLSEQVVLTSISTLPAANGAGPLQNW
UniProt O43613, whole entry: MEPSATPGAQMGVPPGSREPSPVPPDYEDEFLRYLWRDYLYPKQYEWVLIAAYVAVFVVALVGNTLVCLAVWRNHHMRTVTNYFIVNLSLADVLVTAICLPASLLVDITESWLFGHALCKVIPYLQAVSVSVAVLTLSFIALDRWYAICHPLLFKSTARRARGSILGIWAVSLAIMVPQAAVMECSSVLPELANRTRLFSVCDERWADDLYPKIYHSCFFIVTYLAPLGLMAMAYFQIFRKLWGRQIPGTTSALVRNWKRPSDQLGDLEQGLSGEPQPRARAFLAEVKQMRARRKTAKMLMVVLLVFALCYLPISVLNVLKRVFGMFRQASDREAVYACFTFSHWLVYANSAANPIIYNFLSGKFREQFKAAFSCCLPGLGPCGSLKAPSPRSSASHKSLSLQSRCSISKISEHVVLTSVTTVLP

Like-named read-outs stand apart in the source and are kept apart here.

Experiment [1] concerns the target T1, OX2 (Homo sapiens, UniProt O43614).
T1 construct: expressed in transfected cells; host or cells: CHO (CHO-OX2, kept under G418 or Blasticidin selection)
Briefly: Orexin receptor cell-based functional assay: [Ca2+]i by FLIPR in CHO-OX2 cells, antagonism of EC90 of OXA.

Experiment [2] concerns the target T2, OX1 (Homo sapiens, UniProt O43613).
T2 construct: expressed in transfected cells; host or cells: CHO (CHO-OX1, kept under G418 or Blasticidin selection)
Briefly: Orexin receptor cell-based functional assay: [Ca2+]i by FLIPR in CHO-OX1 cells, antagonism of EC90 of OXA.

Where [3] appears, read: Table 2A, bioactivity with respect to OX2, CHO-OX2 cells, FLIPR, read-out: OX2.
The mark [4] stands for this setting: Table 2, IC50 bioactivity, CHO-OX2 cells, FLIPR, read-out: OX2.

`Cc1nc(C(=O)N2CCCC(C)(C)C2CNc2ncc(C(F)(F)F)cn2)c(-c2ccc(F)cc2)s1` (centres unmarked) [SR-12364, reference compound]: the IC50 in experiment [1] (Table 5, read-out: OX2 IC50) stood at 2640 nM. As to `Cc1ccc(-n2nccn2)c(C(=O)N2CCC[C@@H](C)[C@H]2CNc2nnc(C(F)(F)F)s2)c1` [Example A102, ((2S,3R)-3-Methyl-2-(((5-(trifluoromethyl)-1,3,4-thiadiazol-2-yl)amino)methyl)piperidin-1-yl)(5-methyl-2-(2H-1,2,3-triazol-2-yl)phenyl)methanone], in experiment [1] (setting [3]), the IC50 was more than 5000 nM. On to `Cc1ccc(-c2ncccn2)c(C(=O)N2CCC[C@@H](C)[C@H]2CNc2ccc(C(F)(F)F)cn2)n1` [Example A183, ((2S,3R)-3-Methyl-2-(((5-(trifluoromethyl)pyridin-2-yl)amino)methyl)piperidin-1-yl)(6-methyl-3-(pyrimidin-2-yl)pyridin-2-yl)methanone], for which the IC50 in experiment [1] (setting [3]) amounted to 4000 nM. With `Cc1nc(C(=O)N2CCCC(C)(C)C2CNc2ncc(C(F)(F)F)cn2)c(-c2ccc(F)cc2)s1` (centres unmarked) [SR-12365, reference compound], in experiment [2] (OX1 over OX2, from the IC50 values of Table 5), the “selectivity ratio (OX1/OX2 selectivity)” value was “approximately 20”. As to `Cc1ccc(-c2ccccn2)c(C(=O)N2CCC[C@@H](C)[C@H]2CNc2ccc(C(F)(F)F)nn2)c1` [Example A150, ((2S,3R)-3-Methyl-2-(((6-(trifluoromethyl)pyridazin-3-yl)amino)methyl)piperidin-1-yl)(5-methyl-2-(pyridin-2-yl)phenyl)methanone], in experiment [1] (setting [3]), the IC50 was 4000 nM.

`Cc1ccc(-c2ncccn2)c(C(=O)N2CCC[C@@H](C)[C@H]2CNc2ncc(F)cc2F)c1` [Example A182, ((2S,3R)-2-(((3,5-Difluoropyridin-2-yl)amino)methyl)-3-methylpiperidin-1-yl)(5-methyl-2-(pyrimidin-2-yl)phenyl)methanone]: the IC50 in experiment [1] (setting [3]) was 4000 nM. Take `O=C(NC[C@@H]1C[C@@H](O)CN1C(=O)c1ccccc1-c1ccccc1)c1cccc2cccnc12` [Example 4, N-(((2S,4R)-1-(Biphenylcarbonyl)-4-hydroxypyrrolidin-2-yl)methyl)quinoline-8-carboxamide]: the IC50 in experiment [1] (setting [4]) is 1000 nM. For `Cc1ccc(-c2ccccn2)c(C(=O)N2CCC[C@@H](C)[C@H]2CNc2ncc(C(F)(F)F)cn2)c1` [Example A152, ((2S,3R)-3-Methyl-2-(((5-(trifluoromethyl)pyrimidin-2-yl)amino)methyl)piperidin-1-yl)(5-methyl-2-(pyridin-2-yl)phenyl)methanone], the IC50 in experiment [1] (setting [3]) amounted to 2000 nM. `Cc1nc(C(=O)N2CCCCC2CNc2ncc(C(F)(F)F)cn2)c(-c2ccc(F)cc2)s1` (centres unmarked) [SR-12376, reference compound]: in experiment [2] (OX1 over OX2, cell-based functional assay), the “selectivity for OX1” value was “approximately five”. Besides, the IC50 in experiment [1] (Table 5, read-out: OX2 IC50) was 70 nM. With `C[C@@H]1CCCN(C(=O)c2ccccc2OC(F)(F)F)[C@@H]1CNc1ncc(Cl)cn1` (racemic) [Example 122, rac-((2S,3R)-2-(((5-chloropyrimidin-2-yl)amino)methyl)-3-methylpiperidin-1-yl)(2-(trifluoromethoxy)phenyl)methanone], the IC50 in experiment [1] (setting [4]) came out at 5000 nM.

On to `Cc1nc(-c2ccccc2)c(C(=O)N2CC(N)CCC2CNC(=O)c2cccc3cccnc23)s1` (racemic) [Example 44, rac-N-((5-amino-1-(2-methyl-4-phenylthiazole-5-carbonyl)piperidin-2-yl)methyl)quinoline-8-carboxamide], for which, in experiment [1] (setting [4]), the IC50 was determined as 1000 nM. In the case of `C[C@@H]1CCCN(C(=O)c2cc(Cl)ccc2-c2ncccn2)[C@@H]1CNc1ncc(C(F)(F)F)cn1` [Example A201, (5-Chloro-2-(pyrimidin-2-yl)phenyl)((2S,3R)-3-methyl-2-(((5-(trifluoromethyl)pyrimidin-2-yl)amino)methyl)piperidin-1-yl)methanone], the “selectivity for OX1 over OX2” value in experiment [2] (relative to Examples 112 and 114 (Table 4)) is recorded as “improved selectivity for OX1 over OX2”. Regarding `CO[C@@H]1CCCN(C(=O)c2nc(C)sc2-c2ccc(F)cc2)[C@@H]1CNc1nc2ccccc2s1` (racemic) [Example 94, rac-((2R,3R)-2-((benzo[d]thiazol-2-ylamino)methyl)-3-methoxypiperidin-1-yl)(5-(4-fluorophenyl)-2-methylthiazol-4-yl)methanone], the IC50 in experiment [1] (setting [4]) turned out to be 1000 nM.
